Experimental data published in ChEMBL document CHEMBL1154385, “(4-Piperidinyl)-piperazine: a new platform for acetyl-CoA carboxylase inhibitors” (Bioorg Med Chem Lett, 2009).

Chains of the proteins cited; added tags and fusions are not shown.
UniProt Q1HEC0, whole entry: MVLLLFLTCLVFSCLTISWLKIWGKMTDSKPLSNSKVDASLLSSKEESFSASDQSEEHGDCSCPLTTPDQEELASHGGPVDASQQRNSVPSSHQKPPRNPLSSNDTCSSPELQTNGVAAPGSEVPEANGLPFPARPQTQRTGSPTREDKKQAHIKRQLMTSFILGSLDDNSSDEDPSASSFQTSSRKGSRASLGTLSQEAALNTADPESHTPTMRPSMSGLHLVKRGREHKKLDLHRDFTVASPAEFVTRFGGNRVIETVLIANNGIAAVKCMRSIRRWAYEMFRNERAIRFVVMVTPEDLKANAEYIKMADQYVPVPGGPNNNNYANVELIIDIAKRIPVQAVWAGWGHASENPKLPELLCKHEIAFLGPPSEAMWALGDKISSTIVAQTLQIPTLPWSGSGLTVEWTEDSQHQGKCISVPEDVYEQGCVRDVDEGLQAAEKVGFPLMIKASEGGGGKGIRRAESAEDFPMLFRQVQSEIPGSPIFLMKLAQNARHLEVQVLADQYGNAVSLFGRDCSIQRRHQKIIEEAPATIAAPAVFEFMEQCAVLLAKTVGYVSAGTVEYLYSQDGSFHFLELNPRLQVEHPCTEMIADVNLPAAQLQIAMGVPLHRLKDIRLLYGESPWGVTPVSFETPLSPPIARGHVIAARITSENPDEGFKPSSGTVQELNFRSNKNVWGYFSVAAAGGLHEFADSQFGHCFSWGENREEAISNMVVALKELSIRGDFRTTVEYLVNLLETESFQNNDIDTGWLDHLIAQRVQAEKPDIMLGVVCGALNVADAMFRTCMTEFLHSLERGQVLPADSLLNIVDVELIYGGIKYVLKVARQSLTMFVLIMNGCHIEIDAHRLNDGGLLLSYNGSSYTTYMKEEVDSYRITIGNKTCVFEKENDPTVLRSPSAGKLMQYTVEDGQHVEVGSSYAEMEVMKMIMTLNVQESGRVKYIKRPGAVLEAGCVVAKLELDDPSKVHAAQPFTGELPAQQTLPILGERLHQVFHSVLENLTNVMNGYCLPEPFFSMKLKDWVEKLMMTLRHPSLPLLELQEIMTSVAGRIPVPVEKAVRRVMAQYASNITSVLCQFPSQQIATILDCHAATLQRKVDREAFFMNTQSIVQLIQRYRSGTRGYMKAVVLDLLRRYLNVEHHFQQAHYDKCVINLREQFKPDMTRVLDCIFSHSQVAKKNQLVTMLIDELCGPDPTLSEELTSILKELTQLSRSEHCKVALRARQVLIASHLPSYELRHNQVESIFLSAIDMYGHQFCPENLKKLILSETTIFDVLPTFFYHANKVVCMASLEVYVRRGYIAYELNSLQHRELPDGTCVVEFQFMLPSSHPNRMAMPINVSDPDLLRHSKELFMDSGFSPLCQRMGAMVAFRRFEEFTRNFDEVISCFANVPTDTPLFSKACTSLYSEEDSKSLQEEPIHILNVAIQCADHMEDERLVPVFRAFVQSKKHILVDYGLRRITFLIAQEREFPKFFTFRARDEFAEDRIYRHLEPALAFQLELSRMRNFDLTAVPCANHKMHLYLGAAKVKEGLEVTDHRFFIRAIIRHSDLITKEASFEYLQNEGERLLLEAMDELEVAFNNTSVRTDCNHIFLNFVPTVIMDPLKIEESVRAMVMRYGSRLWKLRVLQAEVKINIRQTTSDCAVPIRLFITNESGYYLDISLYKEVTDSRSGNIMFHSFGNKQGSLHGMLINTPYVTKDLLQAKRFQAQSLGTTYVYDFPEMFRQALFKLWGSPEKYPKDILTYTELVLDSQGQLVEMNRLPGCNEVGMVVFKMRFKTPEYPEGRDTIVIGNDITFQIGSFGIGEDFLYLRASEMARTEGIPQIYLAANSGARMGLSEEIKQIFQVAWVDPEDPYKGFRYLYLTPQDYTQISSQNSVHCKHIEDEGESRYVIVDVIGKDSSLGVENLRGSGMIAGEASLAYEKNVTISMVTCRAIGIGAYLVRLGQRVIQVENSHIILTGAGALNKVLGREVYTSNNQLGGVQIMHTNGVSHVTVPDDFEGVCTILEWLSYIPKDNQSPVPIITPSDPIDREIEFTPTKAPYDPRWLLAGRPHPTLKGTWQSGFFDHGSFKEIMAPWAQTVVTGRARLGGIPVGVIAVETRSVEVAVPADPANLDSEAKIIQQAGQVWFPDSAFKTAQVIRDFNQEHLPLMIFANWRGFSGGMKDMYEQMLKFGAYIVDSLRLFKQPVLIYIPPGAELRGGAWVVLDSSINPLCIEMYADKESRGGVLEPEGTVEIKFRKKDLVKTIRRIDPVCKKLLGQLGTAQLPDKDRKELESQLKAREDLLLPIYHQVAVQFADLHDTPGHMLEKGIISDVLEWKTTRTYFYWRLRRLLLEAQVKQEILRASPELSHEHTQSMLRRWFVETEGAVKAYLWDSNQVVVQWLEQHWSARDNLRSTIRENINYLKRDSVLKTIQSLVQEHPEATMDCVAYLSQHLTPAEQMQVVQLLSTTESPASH

Biological target: Acetyl-Coenzyme A carboxylase 2 (Rattus norvegicus, UniProt Q1HEC0)
Assay: Inhibition of rat ACC2

- IC50: 61 nM
Structure (SMILES): O=C(c1c2ccccc2cc2ccccc12)N1CCC(N2CCC[C@@H](C(=O)N3CCOCC3)C2)CC1
